ChEMBL document CHEMBL1130523, “Design and synthesis of the cartilage protective agent (CPA, Ro32-3555)” (Bioorg Med Chem Lett, 1997)

Biological target: Collagenase
Experiment: Inhibition of human collagenase (MMP1)
Type: protein assay

Question: CNC(=O)[C@H](NC(=O)[C@H](CC(C)C)[C@@H](CN1C(=O)c2ccccc2C1=O)C(=O)NO)C(C)(C)C was tested. Which IC50 did it give?
Answer: 500 pM
